Target: T1, human serum albumin (HSA) (Homo sapiens, UniProt P02768)
T1 construct: gene ALB; mature serum albumin, 585 residues, single polypeptide
Experiment: intrinsic fluorescence quenching titration, excitation […] nm, Hill / double-log plot
Format: binding
Conditions: no electromagnetic field, 50 mM potassium phosphate pH 7.4, 298 K, HSA 4.52 × 10^-6 M, header printed as Ka × 10^-6/M^-1

Sequences of proteins named here, by UniProt entry; tags and fusion partners are left off. Residues count along the entry.
UniProt P02768, 25-609: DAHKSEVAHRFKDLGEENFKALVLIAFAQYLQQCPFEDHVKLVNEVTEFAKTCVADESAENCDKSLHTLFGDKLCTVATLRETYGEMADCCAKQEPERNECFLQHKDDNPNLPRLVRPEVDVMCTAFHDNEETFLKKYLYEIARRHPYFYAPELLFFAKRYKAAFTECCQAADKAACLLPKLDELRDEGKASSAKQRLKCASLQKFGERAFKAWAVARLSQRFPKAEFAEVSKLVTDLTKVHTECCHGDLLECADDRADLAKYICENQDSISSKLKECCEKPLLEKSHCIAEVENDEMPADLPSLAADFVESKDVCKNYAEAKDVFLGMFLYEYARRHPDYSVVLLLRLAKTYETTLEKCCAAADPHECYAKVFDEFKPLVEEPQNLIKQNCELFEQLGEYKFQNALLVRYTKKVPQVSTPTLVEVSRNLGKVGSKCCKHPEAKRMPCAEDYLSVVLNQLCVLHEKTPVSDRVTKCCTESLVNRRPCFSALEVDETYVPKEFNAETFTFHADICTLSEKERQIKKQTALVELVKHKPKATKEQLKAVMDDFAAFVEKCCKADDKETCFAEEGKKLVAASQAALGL

**Q.** For `CCn1cc(C(=O)O)c(=O)c2cc(F)c(N3CCNCC3)cc21` [norfloxacin, 1-ethyl-6-fluoro-1,4-dihydro-4-oxo-7-(1-piperazinyl)-3-quinoline carboxylic acid], which “Ka × 10^-6/M^-1 λex = 280 nm” value is on record?
**A.** The value was 22.06 × 10^6 M^-1.

Source: PMC6264156, “Probing the Interaction of Human Serum Albumin with Norfloxacin in the Presence of High-Frequency Electromagnetic Fields: Fluorescence Spectroscopy and Circular Dichroism Investigations” (Molecules, 2011)
